Values of other authors in patent US8759324B2 (priority 2006, dated 2014).

Conditions: intravenous 1.1 g of CP, at the peak CP levels; cited from earlier work

4-hydroxycyclophosphamide
4-OHCP plasma level: 0.69 µg/mL
